Data from paper PMC5085626, “Characterization of a β-Adrenergic-Like Octopamine Receptor in the Oriental Fruit Fly, Bactrocera dorsalis (Hendel)” (International Journal of Molecular Sciences, 2016).
Where a name gives a salt, the structure may show the parent alone.

Amino acid sequences for entries named in this document (tags omitted).
UniProt A0ABM3J3U4, entry or part of it: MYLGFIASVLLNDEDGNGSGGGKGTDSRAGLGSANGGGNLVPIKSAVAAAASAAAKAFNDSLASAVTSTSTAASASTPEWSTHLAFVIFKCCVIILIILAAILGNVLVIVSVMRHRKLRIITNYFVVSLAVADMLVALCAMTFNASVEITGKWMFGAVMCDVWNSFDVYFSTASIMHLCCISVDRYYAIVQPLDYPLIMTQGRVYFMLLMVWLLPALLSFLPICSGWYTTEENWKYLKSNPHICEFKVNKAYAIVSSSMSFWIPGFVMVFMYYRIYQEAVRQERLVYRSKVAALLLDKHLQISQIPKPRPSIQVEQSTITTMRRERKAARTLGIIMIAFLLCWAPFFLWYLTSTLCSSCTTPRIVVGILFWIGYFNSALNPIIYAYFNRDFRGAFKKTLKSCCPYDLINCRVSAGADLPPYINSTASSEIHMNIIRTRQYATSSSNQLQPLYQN

Target: BdOctβR1 (Bactrocera dorsalis, UniProt A0ABM3J3U4)

How did the “antagonistic activity (in words)” value turn out when `CN1CCN2c3ccccc3Cc3ccccc3C2C1` (stereo not shown) [mianserin, mianserin hydrochloride] was run?
Its value is “significant antagonistic activity”.
